# Measured values taken from PubChem BioAssay AID590 (National Center for Advancing Translational Sciences (NCATS), 2007).
# About 6,500 (11%) of roughly 59,000 compounds were called active. All entries are inconclusive by the source's own rule. Clear calls are listed elsewhere. No stated cut-off is given here; in the data, active means max dye-equivalent concentration above about 10 nM; inconclusive means mostly about 1.1 nM to 9.6 nM; inactive means weaker than that.
# Experiment: qHTS Assay for Spectroscopic Profiling in A350 Spectral Region
# Details: Compound autofluorescence, 340/450 nm, Alexa 350 dye-equivalents; active compounds read high
# From the text: NIH Molecular Libraries Screening Centers Network [MLSCN]
# NIH Chemical Genomics Center [NCGC]
# Occasionally, the artifactual effect may originate from the compounds own spectral or other biophysical properties which generally tend to track its assay concentration. Pre-screening/profiling the library with respect to the compounds spectral properties should help one exclude false positives early on. While the most informative fluorescent profiling data set is obtained by performing a full excitation and emission scan of each well by using a monochromator-based plate reader, such an approach is practical only on a very limited scale as scanning each well requires long time. An alternative approach, applied here, is to perform plate reader scans using selected excitation and emission wavelength pairs to generate a multidimensional relational database that correlates compound concentration and the respective relative fluorescence intensity at a given wavelength set. A standard curve of Alexa 350 (A 350) present on each plate as six-point concentration series, was used to compute a normalized fluorescence response, termed dye-equivalent concentration, for each compound at each concentration.
# NCGC Assay Protocol Summary:
# 100 mM Tris buffer, pH 8.0
# The wells in columns 1 through 4 of a Kalypsys polypropylene 1536-well compound plate were filled with standard solutions of fluorophore corresponding to the spectral region of interest. Solutions of A 350 were placed in the following wells: I1, J1: 3 mM, I2, J2: 300 uM, I3, J3: 30 uM, I4, J4: zero (DMSO), K1, L1: 3 uM, K2, L2: […], K3, L3: 300 nM, K4, L4: zero (DMSO).
# Six uL of buffer were dispensed to 1536-well Greiner black plates. Compounds and dye standards (23 nL) were transferred via Kalypsys PinTool. The plates were incubated for 15 min at room temperature, and then read on ViewLux (Perkin-Elmer) High-throughput CCD imager using 340 nm and 450 nm excitation and emission filter set.
# Keywords: NIH Roadmap, MLSCN, MLI, MLSMR, qHTS, NCGC, A350, A-350, Fluorescent Profiling.
row,Structure (SMILES),max dye-equivalent concentration
1,Cc1nn(-c2ccccc2)c2c1P(=O)(N1CCOCC1)N(C)C(c1ccccc1)=N2 (centres undefined),inconclusive: 1.2 nM
2,CN(C(=O)Cc1ccc(Cl)c(Cl)c1)[C@@H]1CCCC[C@H]1N1CCCC1,inconclusive: 1.9 nM
3,Cc1cccc(OCC(=O)OC2CN3CCC2CC3)c1 (centres undefined),inconclusive: 6.8 nM
4,O=C(CC(=O)c1ccccc1)O[C@H]1CN2CCC1CC2,inconclusive: 6.7 nM
5,CN(C(=O)Cc1ccc(Cl)c(Cl)c1)[C@@H]1CC[C@@]2(CCCO2)C[C@H]1N1CCCC1,inconclusive: 5.2 nM
6,CCOP1(=S)c2c(C)nn(CCC#N)c2N=C(c2ccccc2F)N1C (centres undefined),inconclusive: 1.9 nM
7,CCOP1(=S)c2c(C)nn(CCC#N)c2N=C(c2ccc(F)cc2)N1C (centres undefined),inconclusive: 2.2 nM
8,O=P(Nc1nccs1)(c1ccccc1)c1ccccc1,inconclusive: 1.3 nM
9,c1nnnn1CCn1cnnn1,inconclusive: 1.2 nM
